Only a part is listed here, and it is no random draw. Active and inactive are the calls of the source.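 How the source made its calls: active means primary inhibition of 50% or more at 10 µM, then 40% or more on retest; inactive means the rest.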

Protein sequences, listed by entry. Tags and fused reporters are not part of them.
UniProt P05107, whole entry, looked up: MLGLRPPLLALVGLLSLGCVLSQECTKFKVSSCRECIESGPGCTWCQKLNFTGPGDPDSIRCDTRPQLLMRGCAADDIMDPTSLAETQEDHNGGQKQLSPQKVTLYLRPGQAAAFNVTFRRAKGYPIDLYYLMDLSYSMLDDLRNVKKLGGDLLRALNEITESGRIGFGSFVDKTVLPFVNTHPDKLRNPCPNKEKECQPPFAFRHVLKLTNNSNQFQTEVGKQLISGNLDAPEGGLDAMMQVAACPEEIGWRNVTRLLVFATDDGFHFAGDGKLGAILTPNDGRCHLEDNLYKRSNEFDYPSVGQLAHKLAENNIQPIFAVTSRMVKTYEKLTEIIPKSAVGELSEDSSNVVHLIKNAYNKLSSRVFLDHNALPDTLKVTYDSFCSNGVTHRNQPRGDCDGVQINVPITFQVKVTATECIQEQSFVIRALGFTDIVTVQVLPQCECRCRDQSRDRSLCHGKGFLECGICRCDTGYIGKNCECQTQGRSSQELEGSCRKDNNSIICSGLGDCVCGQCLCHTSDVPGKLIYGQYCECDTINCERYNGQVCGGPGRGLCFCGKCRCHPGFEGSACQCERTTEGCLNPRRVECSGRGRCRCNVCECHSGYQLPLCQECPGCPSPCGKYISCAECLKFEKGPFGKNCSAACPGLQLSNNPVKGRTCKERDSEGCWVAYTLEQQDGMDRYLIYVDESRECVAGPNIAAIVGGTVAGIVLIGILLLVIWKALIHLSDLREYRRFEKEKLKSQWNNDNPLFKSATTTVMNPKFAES

The experiment deals with Integrin beta-2 (Homo sapiens) + Integrin alpha-M (Homo sapiens) (UniProt P05107+P11215). As to the kind of experiment: inhibitors of CD11b/CD18 adhesion to fibrinogen, primary screen, K562 cells, luminescence (AID 1497). The following applies: ATPlite luminescence, at 10 µM, stronger effect = higher value, Mn2+ added to activate the integrin. (Cellular ATP, detected with luciferase, serves as a proxy for viable cell number.)
`CCOc1ncccc1C(=O)NCC1(N2CCOCC2)CCCCC1`: the inhibition (usually the change of the read-out against control, counted positive when it falls) was inactive: -17.2%.

`CCC(CO)(C(=O)OC1CN2CCC1CC2)c1ccccc1` (stereo not given): the inhibition is inactive: 12.8%.

As for `Fc1ccccc1NC1CCN(Cc2ccccc2)CC1`, the inhibition is inactive: 5%.

Take `c1ccc(CN2CCC(Nc3ccccc3)CC2)cc1`: the inhibition is inactive: -14.1%.

Turning to `N/C(=N\O)c1c(N)no[n+]1[O-]`, the inhibition was inactive: -9%.

`N#CC1(Nc2ccccc2)CCN(CCc2ccccc2)CC1`: the inhibition was inactive: 12.4%.

Regarding `O=C(NCC1(N2CCOCC2)CCCCC1)c1cc(=O)[nH]c2ccccc12`, the inhibition was inactive: 18.7%.

With `COc1ccc(NC2CCN(CCc3ccccc3)CC2)c(OC)c1`, the inhibition was inactive: 5.1%.

Regarding `O=C(NCC1(N2CCOCC2)CCCCC1)c1cc2ccccc2o1`, the inhibition is inactive: -12.3%.

With `O=C(OC1CN2CCC1CC2)C1c2ccccc2Oc2ccccc21` (stereo not given), the inhibition was inactive: -7.4%.

For the origin of these results see PubChem BioAssay AID1497 (Sanford-Burnham Center for Chemical Genomics, 2009).
